{"sequences": {"note": "The chains behind the UniProt entries cited, without tags or fusion partners. Where a name states a change or a piece, a line headed by the entry shows the natural chain unless it says otherwise.", "UniProt Q96PN6": "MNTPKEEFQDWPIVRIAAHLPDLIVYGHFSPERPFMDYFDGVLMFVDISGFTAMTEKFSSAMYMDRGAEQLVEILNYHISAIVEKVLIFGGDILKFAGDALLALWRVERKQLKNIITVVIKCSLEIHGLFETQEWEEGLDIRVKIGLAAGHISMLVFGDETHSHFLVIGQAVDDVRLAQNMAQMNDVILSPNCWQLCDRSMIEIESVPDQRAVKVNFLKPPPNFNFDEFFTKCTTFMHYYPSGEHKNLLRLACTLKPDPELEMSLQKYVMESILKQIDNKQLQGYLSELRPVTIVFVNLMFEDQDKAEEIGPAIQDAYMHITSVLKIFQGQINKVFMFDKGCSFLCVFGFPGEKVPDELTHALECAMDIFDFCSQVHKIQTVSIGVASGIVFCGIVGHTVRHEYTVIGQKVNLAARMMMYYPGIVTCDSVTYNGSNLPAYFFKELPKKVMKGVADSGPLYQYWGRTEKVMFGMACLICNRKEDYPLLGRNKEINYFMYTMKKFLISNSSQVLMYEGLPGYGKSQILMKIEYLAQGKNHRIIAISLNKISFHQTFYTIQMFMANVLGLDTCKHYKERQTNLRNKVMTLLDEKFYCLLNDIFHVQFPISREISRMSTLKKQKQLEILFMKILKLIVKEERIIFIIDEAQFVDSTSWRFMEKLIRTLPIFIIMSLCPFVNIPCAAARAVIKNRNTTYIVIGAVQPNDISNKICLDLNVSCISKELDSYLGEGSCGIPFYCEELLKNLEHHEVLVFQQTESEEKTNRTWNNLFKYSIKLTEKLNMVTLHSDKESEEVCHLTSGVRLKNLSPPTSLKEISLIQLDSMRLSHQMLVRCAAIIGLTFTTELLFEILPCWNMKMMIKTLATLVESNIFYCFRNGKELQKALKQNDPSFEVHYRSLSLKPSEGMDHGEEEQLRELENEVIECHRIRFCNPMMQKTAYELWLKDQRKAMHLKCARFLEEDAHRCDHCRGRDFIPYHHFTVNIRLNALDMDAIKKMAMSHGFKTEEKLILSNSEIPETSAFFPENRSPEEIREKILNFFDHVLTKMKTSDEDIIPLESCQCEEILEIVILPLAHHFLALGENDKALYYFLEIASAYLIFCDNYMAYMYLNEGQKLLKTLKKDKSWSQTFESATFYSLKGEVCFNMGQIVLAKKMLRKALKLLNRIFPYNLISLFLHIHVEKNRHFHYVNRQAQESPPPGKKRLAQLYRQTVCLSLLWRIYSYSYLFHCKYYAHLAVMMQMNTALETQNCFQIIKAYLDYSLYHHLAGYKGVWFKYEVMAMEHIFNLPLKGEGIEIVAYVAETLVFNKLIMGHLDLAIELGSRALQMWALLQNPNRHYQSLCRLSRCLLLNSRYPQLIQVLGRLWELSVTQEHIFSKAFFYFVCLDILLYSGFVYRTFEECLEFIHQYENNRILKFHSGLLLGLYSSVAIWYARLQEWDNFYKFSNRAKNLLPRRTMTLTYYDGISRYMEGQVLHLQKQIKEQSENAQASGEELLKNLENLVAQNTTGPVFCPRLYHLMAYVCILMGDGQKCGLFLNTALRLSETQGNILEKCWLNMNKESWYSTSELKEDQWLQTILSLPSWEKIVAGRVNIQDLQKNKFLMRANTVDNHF"}, "source": "ChEMBL document CHEMBL5214996", "about": "“Design, Synthesis, and Pharmacological Evaluation of Second-Generation Soluble Adenylyl Cyclase (sAC, ADCY10) Inhibitors with Slow Dissociation Rates” (J Med Chem, 2022)", "target": "Adenylate cyclase type 10 (Homo sapiens, UniProt Q96PN6)", "conditions": "dose 500.0 µM, time 15.0 min"}
{"smiles": "Nc1nc(Cl)cc(-c2n[nH]cc2Cc2ccccc2)n1", "values": [{"measurement": "inhibition", "result": 70, "unit": "%"}]}
{"smiles": "CN(C)C(=O)c1ccccc1Cc1cn(C)nc1-c1cc(Cl)nc(N)n1", "values": [{"measurement": "inhibition", "result": 75, "unit": "%"}]}
